Test [1] relates to BmMDH2S101G. It counts as biochemical, Bacillus methanolicus MGA3. As to the method:
(§1) Data are shown as means ± SDs (n = 3). Apparent KM values for NAD^+ were determined in the presence of 10 nM ACT (Fig. S6). […] Data are presented as means ± SDs (n = 3). […] The row labels are given as the substance labels. / Panel D: no substance label is printed with the KD and thermodynamic values.

Sequences of proteins named here, by UniProt entry; tags and fusion partners are left off.
UniProt I3E949, entry or part of it: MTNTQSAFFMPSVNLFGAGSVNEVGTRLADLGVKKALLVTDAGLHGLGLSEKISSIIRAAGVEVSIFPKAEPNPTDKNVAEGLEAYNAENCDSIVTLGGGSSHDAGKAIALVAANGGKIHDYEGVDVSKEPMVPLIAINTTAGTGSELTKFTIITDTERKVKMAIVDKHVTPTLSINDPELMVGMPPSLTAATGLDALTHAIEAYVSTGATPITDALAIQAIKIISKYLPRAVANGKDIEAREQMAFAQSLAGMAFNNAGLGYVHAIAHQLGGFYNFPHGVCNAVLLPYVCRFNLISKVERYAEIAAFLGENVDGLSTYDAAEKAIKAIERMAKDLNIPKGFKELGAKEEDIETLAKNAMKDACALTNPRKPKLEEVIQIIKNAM

Test [2] relates to CnMDH2 CT4-1. The format is biochemical, Cupriavidus necator N-1. As to the method:
as §1

Test [3] deals with T1, BmMDH1 (Bacillus methanolicus, UniProt Q6TV41).
T1 sequence (Q6TV41 1-382): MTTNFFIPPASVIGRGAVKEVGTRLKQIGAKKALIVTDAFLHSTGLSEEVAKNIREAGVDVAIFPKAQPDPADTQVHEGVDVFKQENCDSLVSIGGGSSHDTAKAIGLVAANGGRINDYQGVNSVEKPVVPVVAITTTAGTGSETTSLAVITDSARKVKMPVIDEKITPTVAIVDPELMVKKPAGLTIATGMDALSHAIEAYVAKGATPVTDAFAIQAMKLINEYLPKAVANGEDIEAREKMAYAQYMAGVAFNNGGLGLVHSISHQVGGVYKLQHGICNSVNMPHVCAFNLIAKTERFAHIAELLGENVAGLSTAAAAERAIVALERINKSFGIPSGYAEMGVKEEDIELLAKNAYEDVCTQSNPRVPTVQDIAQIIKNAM
Description: Inhibition assay of MDHs by ADPR (residual activity, ethanol as substrate). The format is biochemical, Bacillus methanolicus MGA3. As to conditions: 3 mM NAD+, 40 mM ethanol, Tris-HCl pH 8.0, 25 °C. The protocol: (§2) Figure 4 Characterization of ADPR inhibition of and binding affinity for MDHs.A, inhibition of MDHs by ADPR in the presence of 3 mM NAD^+. Data are shown as means ± SDs (n = 3). Apparent KM values for NAD^+ were determined in the presence of 10 nM ACT (Fig. S6). B-C, inhibition kinetics of ADPR on ethanol dehydrogenation (B) and formaldehyde reduction (C) catalyzed by BmMDH2. Data are presented as means ± SDs (n = 3). D, binding affinity of ADPR to BmMDH2 determined by isothermal titration calorimetry (ITC). […] The only compounds the table names are ADPR and NAD+, in the column heads. The row labels are given as the substance labels. / Panel D: no substance label is printed with the KD and thermodynamic values.
(§3) Inhibition constants (Ki) were determined by measuring the residual activities of MDHs in the presence of different dilutions of ADPR (2-fold dilutions, ranging from 0 μM to 2000 μM final concentration) using ethanol as substrate. […] The rate of absorbance change is proportional to enzyme activity. The IC50 values were determined by fitting sigmoidal curves to the data using the following four-parameter logistic equation: Y=100/1+10^(LogIC50−X)p Wherein Y is the residual activity (%) of MDHs, X is the logarithm of ADPR concentration, IC50 is the concentration of inhibitor that produces 50% inhibition, and p is the Hill coefficient. The Ki values were calculated based on the IC50s using the Cheng-Prusoff equation: Ki=IC50/1+S0/KM Wherein [S]0 is the initial concentration of NAD^+ used for inhibition assay, and KM is the Michaelis-Menten constant of the MDHs for NAD^+ determined as described below.

The target in test [4] is T2, BmMDH2 (Bacillus methanolicus, UniProt I3E949). The test is described as above. The format is biochemical, Bacillus methanolicus MGA3. The protocol:
as §2, §3

Test [5] addresses T2, BmMDH2. Description: Isothermal titration calorimetry (ITC) of ADPR binding. Set-up: species or system Bacillus methanolicus MGA3. The conditions noted are these: 25 °C, Tris-HCl pH 8.0, 0.5 mM MnCl2. As to the method: The ITC assay was performed on a Malvern Microcal PEAQ-ITC instrument (Malvern Panalytical), at 25 °C with stirring of 750 rpm. The sample cell was filled with 200 μl of protein solution (30 μM purified BmMDH2 in 200 mM Tris-HCl, pH 8.0, 0.5 mM MnCl2). The 300 μM ADPR solution containing 200 mM Tris-HCl (pH 8.0) and 0.5 mM MnCl2 was titrated at a rate of 0.5 μl/s at 150 s time intervals (first injection of 0.4 μl followed by 19 injections of 2 μl). The titration data were analyzed using MicroCal PEAQ-ITC analysis software (version 1.41, provided by the supplier) and fitted with the one-site model. […] Subsequently, the buffer was exchanged to Tris-HCl (200 mM, pH 8.0) using the Amicon Ultra-15 spin filter, and the binding of ADPR to BmMDH2 free of metal ion was analyzed using ITC as described above.
Fig. S10 ITC analysis of ADPR binding to BmMDH2 (a, b) and EDTA-treated BmMDH2 (c). a and b, ITC measurements were performed at 25°C using 200 μL of 30 µM BmMDH2 in 200 mM Tris-HCl (pH 8.0) containing 0.5 mM MnCl2. […] Data were analyzed using MicroCal PEAQ-ITC analysis software and fitted with the one-site model. c, BmMDH2 was treated with 20 mM EDTA in 100 mM glycine-NaOH buffer (pH 9.5) for 2 hours. Subsequently, the buffer was exchanged to 200 mM Tris-HCl (pH 8.0), and the binding of ADPR to metal-free BmMDH2 was analyzed as described in (a) and (b).

The target in test [6] is T2, BmMDH2. Nature of the test: Inhibition kinetics of ADPR on formaldehyde reduction (NADH fluorescence). It counts as biochemical, Bacillus methanolicus MGA3. The conditions noted are these: read-out: Ki derived from inhibition kinetics, NADH varied. The protocol:
as §1

The values below come from publication PMC12926040, “ADP-ribose is a competitive inhibitor of methanol dehydrogenases from Bacillus methanolicus” (The Journal of Biological Chemistry, 2025).

In general, IC50 refers to the concentration that gives 50% inhibition. Read a low IC50 as greater potency in that assay. As usually defined, the Ki is the equilibrium dissociation constant of an inhibitor or competing ligand from its target. What is called Kd is the constant that tells how readily two partners part at equilibrium. Low readings indicate higher affinity, high ones lower affinity. Consider adenosine diphosphate ribose [ADPR], for which the “IC50 of BmMDH2S101G relative to BmMDH2” value in test [1] is reported as “over two orders of magnitude greater”. The “IC50 of CnMDH2 CT4-1 relative to BmMDH2” value in test [2] is reported as “more than fivefold higher”. In test [2], the “Ki of ADPR for CnMDH2 CT4-1 relative to BmMDH2” value came out at 4.8 fold. Further, the IC50 came out at 4800 ± 1000 nM in test [3] and 2400 ± 700 nM in test [4] (3 mM NAD+, 40 mM ethanol, Tris-HCl pH 8.0, 25 °C). For the same substance, the Ki in test [4] (calculated from IC50 by Cheng-Prusoff equation) is 460 ± 150 nM; in test [6], 92 nM. In test [5], this substance returned a Kd of 303 nM.
